# scFv variants of Ab-14 (heavy chain) against a SARS-CoV-2 spike peptide

Source: Li et al. 2023 (doi:10.1038/s41467-023-39022-2), MIT Lincoln Laboratory and A-Alpha Bio; data file from the FLAb repository.

Binding partner: SARS-CoV-2 spike HR2 peptide, sequence PDVDLGDISGINAS.

Parent scFv Ab-14: VH joined to VL by a (GGGGS)3 linker. Changes lie in the heavy chain CDRs alone.
VH: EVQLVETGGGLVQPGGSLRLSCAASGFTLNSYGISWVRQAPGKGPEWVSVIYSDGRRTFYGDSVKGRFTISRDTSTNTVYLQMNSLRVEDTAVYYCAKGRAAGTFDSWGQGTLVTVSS
VL: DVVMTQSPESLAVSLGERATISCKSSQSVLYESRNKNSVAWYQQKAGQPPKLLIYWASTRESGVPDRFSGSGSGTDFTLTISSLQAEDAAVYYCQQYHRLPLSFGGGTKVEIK

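Phage display of a naive human antibody library on the peptide gave the parent. This is the validation round: designs drawn from the data on random variants, tested in the same kind of assay. Group labels follow the data file (En: ensemble of fine-tuned language models; HC: hill climbing; Gen: genetic algorithm; Gibbs: Gibbs sampling; a sequence that several methods proposed may carry one label only). AlphaSeq pools MATa yeast showing the antibodies with MATalpha yeast showing the peptide. After mating in shaken culture at 30 °C for 16 h, diploids were selected and their barcode pairs sequenced. Scores were corrected for input abundance and mapped to Kd with protein pairs of known affinity run in the same pool. Mating was done six times.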

Each variant is given by its three heavy chain CDRs, as the data file delimits them; those of the parent are GFTLNSYGIS, VIYSDGRRTFYGDSVK, GRAAGTFDS. Variants here have more than six changes. Each Kd is an estimate from the mating assay, the geometric mean of the replicates in which the pair was seen; lower is stronger. A pair that was not seen in any replicate is written "no signal"; this usually means weak binding, but a binder can also be missed. The parent sequence was in this pool as ten entries: three were never detected, three once, and four in most replicates, with averages from 2.2 nM to 240 nM.

The variant GFDLNEYGIS | VIYADGMRVSATNTVK | GGNSMISAT [En_Gibbs] showed no signal (0 of 6 replicates; controls 0 of 18).
The variant GFNLDEYGIS | VIYADGRRTVYADSVK | GEAAGTFDI [En_HC] showed 830 pM (6 of 6 replicates; controls 0 of 18).
The variant GFDLNEYGIS | VIYADGRRTFYADSVK | GQAAGTFVL [En_HC] showed 5.4 nM (4 of 6 replicates; controls 0 of 18).
The variant GFDLNEYGIS | VIYADGKRTFYADNVK | GNVAGTFDQ [En_HC] showed 340 pM (6 of 6 replicates; controls 0 of 18).
The variant GFDLNEYGIS | VIYADGMRTYYADSVK | GNEAGTFDV [En_Gen] showed 650 pM (6 of 6 replicates; controls 0 of 18).
The variant GFDLNEYGIS | VIYADGRRTFYADSVK | GEAAGTFFD [En_HC] showed 3.7 nM (6 of 6 replicates; controls 0 of 18).
The variant GFDLNEYGIS | VIYADGRRTFYADSVK | GEAAGSFDQ [En_HC] showed 2.6 nM (6 of 6 replicates; controls 0 of 18).
The variant GNDLDEYGIS | VIYADGSRASYIDKVK | GLVGGQLIV [En_Gibbs] showed no signal (0 of 6 replicates; controls 1 of 18).
The variant GFGLDEFGIS | VIYADGLRSSYADDVK | GEDTGGFIV [En_Gibbs] showed no signal (0 of 6 replicates; controls 0 of 18).
The variant GFDLEEYGIS | VIYADGKRAQYTDAVK | GKFLDMMTY [En_Gibbs] showed 4.8 nM (6 of 6 replicates; controls 0 of 18).
The variant GFDLDEYGIS | VIYADGRRTFYADSVK | GEVAGTFDS [En_HC] showed 250 pM (6 of 6 replicates; controls 0 of 18).
The variant GFDLNEYGIS | VIYADGTRTAYADSVK | GNVAGTFDV [En_Gen] showed 570 pM (6 of 6 replicates; controls 0 of 18).
The variant GFDLNEYGIS | VIYADGKRTFYIDSVK | GEIAGTFDV [En_HC] showed 320 pM (6 of 6 replicates; controls 0 of 18).
The variant GFDVDEYGIS | VIYADGFRTSYAADVK | GSQVGNGLV [En_Gibbs] showed no signal (0 of 6 replicates; controls 0 of 18).
The variant GFDLEEYGIS | VIYADGRRTAYSDSVK | GEAAGTFDV [En_HC] showed 1.8 nM (6 of 6 replicates; controls 1 of 18).
The variant GFDLNDYGIS | VIYADGRRTAYTDSVK | GEVAGTFDS [En_HC] showed 620 pM (6 of 6 replicates; controls 0 of 18).
The variant GFDLNEYGIS | VIYADGVRTAYSDSVK | GETAGTFDT [En_Gen] showed 86 pM (6 of 6 replicates; controls 0 of 18).
The variant GFDLNEYGIS | VIYADGRRTAYADSVK | GEVAGTFDS [En_HC] showed 310 pM (6 of 6 replicates; controls 1 of 18).
The variant GFDLMEYGIS | VIYADGMRQYYANKFK | GEISDSGLI [En_Gibbs] showed no signal (0 of 6 replicates; controls 0 of 18).
The variant GFDLNEYGIS | VIYADGKRTAYADDVK | GNVAGTFDT [En_Gen] showed 490 pM (6 of 6 replicates; controls 1 of 18).
The variant GFSLDEYGIS | VIYADGVRQFYADDVK | GGIAGTFNY [En_Gibbs] showed no signal (0 of 6 replicates; controls 0 of 18).
The variant GFDLNEYGIS | VIYADGRRTAYSDSVK | GNNAGTFDQ [En_Gen] showed 140 pM (5 of 6 replicates; controls 0 of 18).
The variant GFNLDEFGIS | VIYADGNRTFYLDSVK | GTWVGTVDI [En_Gibbs] showed 4.3 nM (6 of 6 replicates; controls 0 of 18).
The variant GFDLDEYGIS | VIYADGVRTFYADSVK | GNVAGTFDV [En_Gen] showed 370 pM (6 of 6 replicates; controls 1 of 18).
The variant GFDLNEYGIS | VIYADGMRTAYSDSVK | GTVAGTFDL [En_Gen] showed 240 pM (6 of 6 replicates; controls 0 of 18).
The variant GFNLGEYGIS | VIYADGRRTFYINSVK | GEFIVMNVI [En_Gibbs] showed no signal (0 of 6 replicates; controls 0 of 18).
The variant GFDLDEYGIS | VIYADGRRTFYADSVK | GTNAGTFDM [En_HC] showed 200 pM (6 of 6 replicates; controls 0 of 18).
The variant GMKLQDYGIS | VIYADGRRTAFSESVK | GQIAGTFNF [En_Gibbs] showed 140 pM (3 of 6 replicates; controls 0 of 18).
The variant GFDLDNFGIS | VIYADGIRTQYQDSVK | GQNVFTFDV [En_Gibbs] showed no signal (0 of 6 replicates; controls 0 of 18).
The variant GFDLDEEGIS | VIYADGSRTAYSKNVK | GGFDIKVIV [En_Gibbs] showed no signal (0 of 6 replicates; controls 0 of 18).
The variant GFQLEEMGIS | VIYADGVRTAYSSKVK | GGNGDKFDV [En_Gibbs] showed 130 nM (1 of 6 replicates; controls 1 of 18).
The variant GFLLDDYGIS | VIYADGLRKAYVDEVK | GYVAGTFDE [En_Gibbs] showed 7.9 nM (5 of 6 replicates; controls 0 of 18).
The variant GFDLNEYGIS | VIYADGMRTVYSDSVK | GENAGTFDL [En_Gen] showed 6.0 nM (6 of 6 replicates; controls 0 of 18).
The variant GFDLNEYGIS | VIYADGMRTAYADSVK | GNVAGTFTL [En_Gen] showed 1.0 nM (6 of 6 replicates; controls 0 of 18).
The variant GFDLDEYGIS | VIYADGMRTAYSDDVK | GNQAGTFDV [En_Gen] showed 280 pM (6 of 6 replicates; controls 0 of 18).
The variant GFNLNEYGIS | VIYADGRRTFYADSVK | GEIAGTFDI [En_HC] showed 730 pM (6 of 6 replicates; controls 1 of 18).
The variant GFDLNEYGIS | VIYADGRRTQYSDSVK | GNEAGTFDS [En_HC] showed 830 pM (6 of 6 replicates; controls 0 of 18).
The variant GFDLNEYGIS | VIYADGRRTAYTDSVK | GHAAGTFDI [En_HC] showed 260 pM (6 of 6 replicates; controls 0 of 18).
The variant GFDLDEYGIS | VIYADGMRTFYADSVK | GNNAGTFDS [En_HC] showed 340 pM (6 of 6 replicates; controls 0 of 18).
The variant GKDLEEYGIS | VIYADGVRAAYADSVK | GINMDIMTV [En_Gibbs] showed no signal (0 of 6 replicates; controls 0 of 18).
The variant GFDLNEYGIS | VIYADGMRSYYADSVK | GNNAGTFDV [En_Gen] showed 820 pM (6 of 6 replicates; controls 0 of 18).
The variant GFDLEDYGIS | VIYADGRRTFYSDSVK | GEIAGTFDL [En_HC] showed 660 pM (6 of 6 replicates; controls 0 of 18).
The variant GFDINEYGIS | VIYADGMRTAYVQQVK | GQHLGSVEV [En_Gibbs] showed 760 nM (1 of 6 replicates; controls 0 of 18).
The variant GFDLEEYGVS | VIYADGHRTAYSDNVK | GVESASIQN [En_Gibbs] showed no signal (0 of 6 replicates; controls 0 of 18).
The variant GFDLNEYGIS | VIYADGRRTAYADSVK | GETAGTFDI [En_Gen] showed no signal (0 of 6 replicates; controls 0 of 18).
The variant GFDLNEYGIS | VIYADGRRTYYSDSVK | GNVGGTFDI [En_HC] showed 140 pM (6 of 6 replicates; controls 2 of 18).
The variant GFDLNEYGIS | VIYADGRRTFYTDSVK | GNNAGTFDV [En_HC] showed 230 pM (6 of 6 replicates; controls 1 of 18).

From the list, the first 7 with no signal in any replicate:

GFDLNEYGIS | VIYADGMRVSATNTVK | GGNSMISAT [En_Gibbs]: no signal (0 of 6 replicates; controls 0 of 18).
GNDLDEYGIS | VIYADGSRASYIDKVK | GLVGGQLIV [En_Gibbs]: no signal (0 of 6 replicates; controls 1 of 18).
GFGLDEFGIS | VIYADGLRSSYADDVK | GEDTGGFIV [En_Gibbs]: no signal (0 of 6 replicates; controls 0 of 18).
GFDVDEYGIS | VIYADGFRTSYAADVK | GSQVGNGLV [En_Gibbs]: no signal (0 of 6 replicates; controls 0 of 18).
GFDLMEYGIS | VIYADGMRQYYANKFK | GEISDSGLI [En_Gibbs]: no signal (0 of 6 replicates; controls 0 of 18).
GFSLDEYGIS | VIYADGVRQFYADDVK | GGIAGTFNY [En_Gibbs]: no signal (0 of 6 replicates; controls 0 of 18).
GFNLGEYGIS | VIYADGRRTFYINSVK | GEFIVMNVI [En_Gibbs]: no signal (0 of 6 replicates; controls 0 of 18).

Three control strains display no target. For all heavy chain designs, 1% of the pairings with them gave a signal, with a median of 120 nM and one signal in twenty below 7.0 nM, so weak values seen in few replicates may be background. Also given: how often the same scFv was detected with the empty control strains. A sequence measured in both rounds can read differently, since the two assays cover different ranges. In the paper, a design with two or fewer of six values counts as a poor binder.